Values of other authors, collected in patent publication US20090012115A1, “USE OF TP MODULATORS FOR THE TREATMENT OF CARDIOVASCULAR DISORDERS IN ASPIRIN SENSITIVE AND OTHER POPULATIONS” (Portola Pharmaceuticals, Inc., priority 2007, published 2009).

Chains of the proteins cited; added tags and fusions are not shown. Residues count along the entry.
UniProt P23219, 24-599: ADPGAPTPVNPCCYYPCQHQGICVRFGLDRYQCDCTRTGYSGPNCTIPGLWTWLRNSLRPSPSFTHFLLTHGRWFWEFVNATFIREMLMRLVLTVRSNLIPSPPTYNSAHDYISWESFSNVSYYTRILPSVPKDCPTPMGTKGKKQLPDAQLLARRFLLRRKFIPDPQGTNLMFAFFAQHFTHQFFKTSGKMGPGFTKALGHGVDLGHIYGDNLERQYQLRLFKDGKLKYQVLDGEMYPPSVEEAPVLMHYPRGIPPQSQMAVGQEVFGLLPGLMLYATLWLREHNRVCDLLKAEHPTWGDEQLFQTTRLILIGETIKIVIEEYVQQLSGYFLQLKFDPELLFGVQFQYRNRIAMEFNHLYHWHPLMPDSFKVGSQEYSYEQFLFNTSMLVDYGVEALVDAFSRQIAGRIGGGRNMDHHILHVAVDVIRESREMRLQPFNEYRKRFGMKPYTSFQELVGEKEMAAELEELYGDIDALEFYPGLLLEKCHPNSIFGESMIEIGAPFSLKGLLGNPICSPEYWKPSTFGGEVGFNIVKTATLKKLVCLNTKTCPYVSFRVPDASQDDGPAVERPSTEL

Columns and labels:
[1] = human circulation; cited from earlier work
COX-1 = COX-1 (Homo sapiens, UniProt P23219); conditions: cited from earlier work

Substance: ortho-acetylsalicylic acid [aspirin]
- half-life [1]: ~20 min
- selectivity toward COX-1 than COX-2 (COX-1): approximately 100 fold
